Molecular target: Aldo-keto reductase family 1 member B1 (Homo sapiens, UniProt P15121)
Assay: Inhibition of N-terminal 6His-tagged human aldose reductase expressed in Escherichia coli BL21(DE3) mediated NADPH linked pyridine-3-aldehyde reduction

IC50: 0.06 µM
Compound: O=C(O)Cc1nn(Cc2nc3cc(C(F)(F)F)ccc3s2)c(=O)c2ccccc12 [ZOPOLRESTAT]

Source: ChEMBL document CHEMBL1177841, “Chromene-3-carboxamide derivatives discovered from virtual screening as potent inhibitors of the tumour maker, AKR1B10” (Bioorg Med Chem, 2010)
